According to article PMC8863796, “Combination of antiviral drugs inhibits SARS-CoV-2 polymerase and exonuclease and demonstrates COVID-19 therapeutic potential in viral cell culture” (Communications Biology, 2022):
“Also recorded” adds a separate entry of the source.

How the values were obtained:
[1] = target: T1, SARS-CoV-2 exonuclease complex (nsp14/nsp10) (Severe acute respiratory syndrome coronavirus 2, UniProt P0DTD1); set-up: method as in earlier work; conditions: previously demonstrated; cited from earlier work
[2] = target: T1, SARS-CoV-2 exonuclease complex (nsp14/nsp10); assay type: biochemical

In the case of `COC(=O)N[C@H](C(=O)N1CCC[C@H]1c1nc(-c2ccc(-c3ccc(-c4c[nH]c([C@@H]5CCCN5C(=O)[C@@H](NC(=O)OC)C(C)C)n4)cc3)cc2)c[nH]1)C(C)C` [Daclatasvir], the “inhibition of SARS-CoV-2 exonuclease” value [1] is listed as “can inhibit the SARS-CoV-2 exonuclease” and the “inhibition of SARS-CoV-2 exonuclease activity” value [2] is listed as “exhibits inhibition of exonuclease activity, but at higher concentrations than either Pibrentasvir or Ombitasvir; also recorded: exonuclease activity was reduced”.
